{"source": "paper PMC8155022", "about": "(Scientific Reports, 2021)", "settings": "no indications of off-target effects that limit further use", "data": [{"smiles": "CC1CCCN1C(=O)c1nc(C(=O)NCC(C)(C)O)sc1-c1ccc(C(O)(C(F)(F)F)C(F)(F)F)c(Cl)c1Cl", "note": "(stereo not shown) [JNJ-61803534]", "values": [{"measurement": "tolerability in safety pharmacology studies", "result": "well tolerated"}]}]}
